Assay results: ChEMBL document CHEMBL1142871, “Flipped out: structure-guided design of selective pyrazolylpyrrole ERK inhibitors” (J Med Chem, 2007)

Protein sequences, listed by entry. Tags and fused reporters are not part of them.
UniProt P28482, whole entry: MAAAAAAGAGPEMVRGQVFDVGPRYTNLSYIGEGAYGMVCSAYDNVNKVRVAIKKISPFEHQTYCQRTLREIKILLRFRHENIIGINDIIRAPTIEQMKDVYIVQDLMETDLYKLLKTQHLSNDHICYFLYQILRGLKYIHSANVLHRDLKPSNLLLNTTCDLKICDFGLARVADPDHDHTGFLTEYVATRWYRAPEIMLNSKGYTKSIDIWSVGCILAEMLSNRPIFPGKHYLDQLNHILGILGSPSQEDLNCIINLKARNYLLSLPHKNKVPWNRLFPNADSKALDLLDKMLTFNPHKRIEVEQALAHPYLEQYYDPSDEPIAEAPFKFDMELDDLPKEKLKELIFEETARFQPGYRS

Biological target: Mitogen-activated protein kinase 1 (Homo sapiens, UniProt P28482)
Experiment: Inhibition of ERK2 by spectrophotometric coupled-enzyme assay

Compound: O=C(N[C@H](CO)c1ccc(F)c(Cl)c1)c1cc(-c2n[nH]cc2-c2cccc(Cl)c2)c[nH]1
- Ki: 2 nM
